# AlphaSeq binding of Ab-14 heavy chain variants to a spike HR2 peptide

Source: Engelhart et al. 2022 (doi:10.1038/s41597-022-01779-4), MIT Lincoln Laboratory and A-Alpha Bio; data file from the FLAb repository.

The target is the same throughout: PDVDLGDISGINAS, from the HR2 region of SARS-CoV-2 spike.

Ab-14 is the parent antibody, in scFv form: VH, then a 15-residue (Gly4Ser)3 linker, then VL. The light chain is unchanged in all variants.
VH: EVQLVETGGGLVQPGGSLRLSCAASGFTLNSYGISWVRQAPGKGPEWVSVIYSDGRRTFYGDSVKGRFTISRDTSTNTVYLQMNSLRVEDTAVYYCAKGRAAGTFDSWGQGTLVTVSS
VL: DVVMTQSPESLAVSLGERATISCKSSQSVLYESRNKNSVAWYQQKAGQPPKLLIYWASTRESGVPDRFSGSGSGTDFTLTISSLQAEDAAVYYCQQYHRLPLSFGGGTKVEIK

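Phage display of a naive human antibody library on the peptide gave the parent. The library (AAYL49) carries one to three amino acid substitutions per variant, with no insertions or deletions. Affinity was read by AlphaSeq, a pooled yeast mating assay with surface-displayed partners. Mating (16 h, 30 °C) was followed by selection of diploids and sequencing of their barcodes. Each replicate has its own calibration line, from reference interactions of the BCL2 family. Each pool was mated in three replicate cultures.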

Substitutions are numbered in sequence along the VH above, starting at 1 (not Kabat). Numbers give log10(Kd / nM), so 0 is 1 nM and 3 is 1 µM. Smaller is tighter. Replicates are averaged; those with no signal do not enter the mean. "not detected" marks a missing value. The strain was present, yet no cells mated with the target were sequenced in any replicate, which points to weak or no binding. Three control strains display no target. For library AAYL49, 15% of the pairings with them gave a signal, with a median of 4.06 and one signal in twenty below 2.83, so weak values seen in few replicates may be background.

changes	log10 Kd (nM), mean	detected
T58L+A101Q+T104Y	not detected	0 of 3
G55E+Y60F	not detected	0 of 3
I34S+R57A+T104K	4.23	2 of 3
R56I+G61F+R100K	2.68	3 of 3
G61L+S63R+F105H	not detected	0 of 3
S31M+Y32F+D106H	not detected	0 of 3
G26I+G99A+S107G	4.07	1 of 3
Y52K+R57H+G103Y	not detected	0 of 3
S31T+Y52D+D106S	not detected	0 of 3
D62E+K65L+G103K	not detected	0 of 3
G26C+D62P+A102M	5.37	2 of 3
G55Q+R100T+A101P	not detected	0 of 3
L29N+I51C+V64Y	not detected	0 of 3
G26S+N30C+D62M	not detected	0 of 3
A101G+D106G	not detected	0 of 3
G33D+R57T+V64A	4.09	3 of 3
D54Y+Y60C+D106W	not detected	0 of 3
Y52R+S63Y+V64C	not detected	0 of 3
D54S+R57W+S63T	3.63	1 of 3
N30R+T104H+D106S	1.50	3 of 3
G61D+R100Q+A101L	-0.07	3 of 3
Y52W+D54F+D106H	3.14	1 of 3
I34A+K65D	not detected	0 of 3
I51P+Y52N+T104G	5.08	2 of 3
N30T+Y52A+R100K	3.69	2 of 3
G26F+D54G+T58P	not detected	0 of 3
G33E+T58K	not detected	0 of 3
S31Y+R57S+A102F	3.03	1 of 3
Y32E+R57S+T104M	not detected	0 of 3
L29K+S35M+D106G	not detected	0 of 3
N30V+G55Y+D106G	not detected	0 of 3
S31K+K65G+G103S	5.31	1 of 3
S63R+K65H	2.05	1 of 3
T28P+R56T+S63E	not detected	0 of 3
F27W+T28A+F105I	4.09	2 of 3
I34D+S35T+S63A	5.11	1 of 3
T28E+S53R+G55Y	not detected	0 of 3
T28V+G61C	2.15	3 of 3
F59E+D62V+S107R	2.82	3 of 3
Y52E+G55P+A102V	not detected	0 of 3
T28Q+Y52Q+R100W	3.88	1 of 3
G26D+I34D	4.06	1 of 3
V50S+R57K	5.18	1 of 3
T28S+R100M+G103M	not detected	0 of 3
N30R+G55I+T58C	not detected	0 of 3
R100W+A102P+G103R	2.86	1 of 3
L29Q+V64M+R100F	3.66	2 of 3
G99P+F105R+S107I	2.88	1 of 3
L29Q+S31D+G61V	2.67	1 of 3
R57Q+S63D+K65T	4.68	3 of 3
G26F+G33C+Y52G	not detected	0 of 3
Y32E+I51V+Y52E	3.47	2 of 3
N30F+V50E+Y52R	4.53	2 of 3
T28Q+A101G	2.40	3 of 3
F59W+G103N+S107I	3.66	3 of 3
L29Q+S31L+D54G	4.76	3 of 3
G99Y+A102F+T104A	1.25	3 of 3
V50P+R56P+V64Y	not detected	0 of 3
G26E+R56M+D62C	4.15	1 of 3

Excerpt, the final 5 entries:

changes,"log10 Kd (nM), mean",detected
F59W+G103N+S107I,3.66,3 of 3
L29Q+S31L+D54G,4.76,3 of 3
G99Y+A102F+T104A,1.25,3 of 3
V50P+R56P+V64Y,not detected,0 of 3
G26E+R56M+D62C,4.15,1 of 3